# Experimental data reported in PubChem BioAssay AID720543 (The Scripps Research Institute Molecular Screening Center, 2013).
# Chains of the proteins cited; added tags and fusions are not shown. Lines headed by an entry give the natural chain unless they say otherwise; changes in a name come on top.
# UniProt Q8VD66: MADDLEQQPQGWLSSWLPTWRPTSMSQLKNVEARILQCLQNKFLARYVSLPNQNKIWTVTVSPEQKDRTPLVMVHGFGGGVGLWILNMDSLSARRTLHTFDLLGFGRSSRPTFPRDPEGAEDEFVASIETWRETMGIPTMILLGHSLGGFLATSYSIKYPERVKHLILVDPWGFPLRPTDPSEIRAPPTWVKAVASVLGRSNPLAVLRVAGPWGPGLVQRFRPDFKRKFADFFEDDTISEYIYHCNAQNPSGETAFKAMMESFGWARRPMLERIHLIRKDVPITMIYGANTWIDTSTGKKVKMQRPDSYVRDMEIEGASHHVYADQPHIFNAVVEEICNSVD
# Only a part is listed here, and it is no random draw. The source made the active and inactive calls.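 The calls were made as follows: active = inhibition exceeding the mean over every tested compound plus 3 SD (cut at about 30% in these data); inactive = the rest.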
# Molecular target: (Lyso)-N-acylphosphatidylethanolamine lipase (Mus musculus) (UniProt Q8VD66)
# Experiment: ABHD4 inhibitors, primary screen, biochemical, fluorescence polarization, mouse (AID 720543);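 also: 0% = plate median of compound wells and 100% = S159A mutant with DMSO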
# Conditions: purified mABHD4, FP-Rh probe fluorescence polarization; at 8.92 µM; active compounds read high
# Summary of the method: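 Material: mouse ABHD4 enzyme, wild type; Benchmarks: S159A mutant high control, sample median low control; Buffer or medium: HEPES pH 7.0, NaCl, Pluronic buffer; Signal: fluorescence polarization; Read-out: percent inhibition of probe binding, normalized to plate controls; Timing: pre-incubation 45 min, probe exposure 60 min, at 25 °C; Dosing: 8.92 µM, single dose.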
row,Structure (SMILES),inhibition
1,Nc1cc(N)c2nonc2c1[N+](=O)[O-],inactive: 0.2%
2,CC(C)CC(=O)NC(Sc1ccc(Cl)cc1)C(Cl)(Cl)Cl (stereo unspecified),inactive: -2.75%
3,O=C(NC(Sc1ccncn1)C(Cl)(Cl)Cl)c1ccccc1 (stereo unspecified),inactive: 5.46%
4,Oc1ccccc1CNc1ccccn1,inactive: -0.62%
5,CN(C(=O)Cc1ccc(Cl)c(Cl)c1)[C@H]1CCCC[C@@H]1N1CCCC1,inactive: -7.1%
6,Cc1ccc(NP(=O)(Oc2ccccc2F)Oc2ccccc2F)nc1,inactive: 4.69%
7,Cc1cc(SC(NC(=O)c2ccc(F)cc2)C(Cl)(Cl)Cl)ncn1 (stereo unspecified),inactive: 6.56%
8,CCOP(=O)(Nc1ccccc1)OCC,inactive: -0.38%
9,CCn1c(=O)n(C2CCN(CC3CCCCCCC3)C[C@H]2CO)c2ccccc21 (stereo partly specified),inactive: 3.39%
10,CCCC1OP(N)(=O)OCC1CC (stereo unspecified),inactive: -4.42%
11,CC(=O)Nc1ccc([As](=O)(O)O)cc1,inactive: 0.41%
12,O=C(O)c1ccccc1[As](=O)(O)O,inactive: 5.75%
13,O=P(Nc1nc2ccc(Cl)cc2s1)(c1ccccc1)c1ccccc1,inactive: -13.7%
14,CN(C)P(=O)(N(C)C)n1c(Nc2ccccc2)nnc1-c1ccccc1,inactive: -7.72%
15,CCN(N=Nc1nonc1N)c1nonc1N,inactive: 5.97%
16,CN(C(=O)Cc1ccccc1)C1CC[C@@]2(CCCO2)C[C@@H]1N1CCCC1 (stereo partly specified),inactive: 1.88%
17,Nc1cccc2ccc([As](=O)(O)O)cc12,inactive: 21.2%
18,O=P1(N(CCCl)CCCl)OCCC2CCCCN21 (stereo unspecified),inactive: -6.34%
19,O=C(NC1CCS(=O)(=O)C1)NP(=S)(Oc1ccccc1)Oc1ccccc1 (stereo unspecified),inactive: -3.49%
20,CCNC(=S)/N=C(\N)N[N+](=O)[O-],inactive: -0.7%
21,Cc1ccc(NP(=O)(Oc2cccc(C)c2)Oc2cccc(C)c2)nc1,inactive: 1.77%
22,c1ccc(-c2nn[nH]n2)c(-c2nn[nH]n2)c1,inactive: -3.71%

row,Structure (SMILES),inhibition
1,O=c1c2cc([N+](=O)[O-])ccc2[nH]c2c([N+](=O)[O-])cc([N+](=O)[O-])cc12,inactive: 12.9%
2,CN(C)C(=O)Oc1noc2ccccc12,inactive: -5.3%
3,CC(NC(=O)COC(=O)C(O)(c1ccccc1)c1ccccc1)c1ccccc1 (stereo unspecified),inactive: 0.03%
4,Cc1ccccc1OP(=O)(Nc1ccccn1)Oc1ccccc1C,inactive: -4.81%
5,Cc1ccc(OP(=O)(Nc2ccccn2)Oc2ccc(C)cc2)cc1,inactive: -5.55%
6,CC(=O)NC(SC(=S)N(CC(C)C)CC(C)C)C(Cl)(Cl)Cl (stereo unspecified),inactive: 7.44%
7,COC(=O)c1cc2c(s1)N=C(c1ccccc1)N(C)P2(=O)N1CCOCC1 (stereo unspecified),inactive: 6.27%
8,CCC(=O)N1C2C3N(C(=O)CC)C1C1N(C(=O)CC)C(C(N1C(=O)CC)N3C(=O)CC)N2C(=O)CC,inactive: -1.39%
9,O=C(OC1CN2CCC1CC2)c1ccccc1 (stereo unspecified),inactive: 1.87%
10,CCc1cc(O)c([N+](=O)[O-])c(C)c1[N+](=O)[O-],inactive: -5.46%
11,CC(C)(C)C(=O)NC(Sc1ccccc1)C(Cl)(Cl)Cl (stereo unspecified),inactive: -2.16%
12,CCOc1ccc(C2=NCC(CBr)S2)cc1 (stereo unspecified),inactive: 5.98%
13,O=P1(Nc2nc3ccc(Cl)cc3s2)COc2ccccc2O1 (stereo unspecified),inactive: 3.06%
14,CC(=O)Nc1ccc(Oc2c([N+](=O)[O-])cc([N+](=O)[O-])cc2[N+](=O)[O-])cc1,inactive: 9.36%
15,CC(=O)Nc1ccc([As](=O)(O)O)c(O)c1,inactive: 6.58%
16,COC(=O)C1(C)COP(=O)(NCc2ccccc2)OC1 (stereo unspecified),inactive: -3.55%
17,CC(=O)c1ccc(N2CC2c2ccncc2)cc1 (stereo unspecified),inactive: -1.79%
18,N#C/C(=C\c1ccc(N(CCBr)CCBr)cc1)C(N)=O,inactive: -1.55%
19,C[C@H]1OP(=O)(Oc2ccccc2)C[C@@H]2O[C@@H]21 (stereo partly specified),inactive: 1.53%
20,C[C@@H]1C=CCP(=O)(Oc2ccccc2)O1 (stereo partly specified),inactive: -3.83%
21,Cc1ccccc1CN(C)C(=O)COC(=O)C(O)(c1ccccc1)c1ccccc1,inactive: -11.7%
22,c1nnnn1CCn1cnnn1,inactive: -0.42%

row,Structure (SMILES),inhibition
1,O=P(Nc1nccs1)(c1ccccc1)c1ccccc1,inactive: 2.42%
2,CC(C)C(=O)NC(Sc1ccccc1)C(Cl)(Cl)Cl (stereo unspecified),inactive: 1.31%
3,C[C@H]1OP(=O)(Oc2ccccc2)[C@H](O)[C@H](O)[C@H]1N=[N+]=[N-] (stereo partly specified),inactive: 1.68%
4,O=P(Nc1nc2ccccc2s1)(c1ccccc1)c1ccccc1,inactive: -5.2%
5,COc1ccc(N)c([N+](=O)[O-])c1[N+](=O)[O-],inactive: 4.51%
6,Nc1ccc(CCCCOc2ccccc2)cc1,inactive: -7.43%
7,CN(C)C1(CNC(=O)c2ccc(Cl)c(S(N)(=O)=O)c2)CCCCC1,inactive: -1.84%
8,O=P(Nc1ccccn1)(c1ccc(Br)cc1)c1ccc(Br)cc1,inactive: 4.65%
9,C(Cc1nn[nH]n1)Cc1nn[nH]n1,inactive: 5.31%
10,Nc1ccc([As](=O)(O)c2ccc([N+](=O)[O-])cc2)cc1,inactive: 0.57%
11,C/C(N)=N\P(=O)(OCc1ccccc1)OCc1ccccc1,inactive: 0.15%
12,O=C(OC1CN2CCC1CC2)c1cccc(Cl)c1 (stereo unspecified),inactive: 1.36%
13,O=[N+]([O-])c1ncn(CCn2cnc([N+](=O)[O-])n2)n1,inactive: -0.66%
14,CC(=O)NC(SC(=S)N(C)C)C(Cl)(Cl)Cl (stereo unspecified),inactive: -2.49%
15,O=[As](O)(c1ccccc1)c1ccc(O)cc1,inactive: -1.18%
16,CCCC1OP(=O)(Nc2ccccc2)OCC1CC (stereo unspecified),inactive: 1.68%
17,O=C(/C=C/c1ccccc1)OC1CN2CCC1CC2 (stereo unspecified),inactive: -1.32%
18,CN(C)C1(CNC(=O)c2ccc(S(C)(=O)=O)cc2)CCCCC1,inactive: 2.28%
19,Cc1ccc(C(=O)OC2CN3CCC2CC3)cc1 (stereo unspecified),inactive: 2.96%
20,CC1CCC(C(C)C)C(OP(=O)(Nc2ccccn2)c2ccccc2)C1 (stereo unspecified),inactive: -4.57%
21,Cc1nn(-c2ccccc2)c2c1P(=O)(N1CCOCC1)N(C)C(c1ccccc1)=N2 (stereo unspecified),inactive: -1.13%
22,O=[As](O)(c1cccs1)c1cccs1,inactive: 2.43%
